Reference: paper PMC5357622, “Chelation Motifs Affecting Metal-dependent Viral Enzymes: N′-acylhydrazone Ligands as Dual Target Inhibitors of HIV-1 Integrase and Reverse Transcriptase Ribonuclease H Domain” (Frontiers in Microbiology, 2017)

Molecular target: HIV-1 IN in presence of LEDGF/p75 (Human immunodeficiency virus type 1 group M subtype B, UniProt P03366)
Experiment: HIV-1 IN/LEDGF HTRF LEDGF-dependent integration assay

Cc1nnc(C(=O)NC(C)(C)c2nc(C(=O)NCc3ccc(F)cc3)c(O)c(=O)n2C)o1 [RAL, raltegravir, reference compound]
IC50: 58 ± 10 nM
